Earlier results on one substance are cited in patent publication US10500256B2, “Polymers for delivery of therapeutic proteins” (BOARD OF REGENTS, THE UNIVERSITY OF TEXAS SYSTEM, priority 2014, dated 2019).

For the data set the following is noted: in vivo; cited from earlier work.

With 1-deamino-8-D-arginine-vasopressin, the Absorption is 1%.
